What was measured:
[1] = target: human cloned 5-HT2A receptor (Homo sapiens, UniProt P28223); test: In vitro binding affinity for 5-HT2A receptor (radioligand binding); conditions: human cloned 5-HT2A receptor expressed in L929 cells, [125I]R91150 radioligand
Protocol: (§1) The interaction of the compounds of Formula (I) with 5-HT2A and 5-HT2C receptors was assessed in in vitro radioligand binding experiments. In general, a low concentration of a radioligand with a high binding affinity for the receptor is incubated with a sample of a tissue preparation enriched in a particular receptor (1 to 5 mg tissue) in a buffered medium (0.2 to 5 ml). During the incubation, the radioligands bind to the receptor. When equilibrium of binding is reached, the receptor bound radioactivity is separated from the non-bound radioactivity, and the receptor bound activity is counted. The interaction of the test compounds with the receptors is assessed in competition binding experiments. Various concentrations of the test compound are added to the incubation mixture containing the tissue preparation and the radioligand. Binding of the radioligand will be inhibited by the test compound in proportion to its binding affinity and its concentration. The affinities of the compounds for the 5-HT2 receptors were measured by means of radioligand binding studies conducted with: (a) human cloned 5-HT2A receptor, expressed in L929 cells using [^125I]R91150 as radioligand and (b) human cloned 5-HT2C receptor, expressed in CHO cells using [^3H]mesulergine as radioligand.

By UniProt entry, the sequences of proteins in these tests, tags left out. Where a name states a change or a piece, a line headed by the entry shows the natural chain unless it says otherwise. Residues count along the entry.
UniProt P28223, whole entry: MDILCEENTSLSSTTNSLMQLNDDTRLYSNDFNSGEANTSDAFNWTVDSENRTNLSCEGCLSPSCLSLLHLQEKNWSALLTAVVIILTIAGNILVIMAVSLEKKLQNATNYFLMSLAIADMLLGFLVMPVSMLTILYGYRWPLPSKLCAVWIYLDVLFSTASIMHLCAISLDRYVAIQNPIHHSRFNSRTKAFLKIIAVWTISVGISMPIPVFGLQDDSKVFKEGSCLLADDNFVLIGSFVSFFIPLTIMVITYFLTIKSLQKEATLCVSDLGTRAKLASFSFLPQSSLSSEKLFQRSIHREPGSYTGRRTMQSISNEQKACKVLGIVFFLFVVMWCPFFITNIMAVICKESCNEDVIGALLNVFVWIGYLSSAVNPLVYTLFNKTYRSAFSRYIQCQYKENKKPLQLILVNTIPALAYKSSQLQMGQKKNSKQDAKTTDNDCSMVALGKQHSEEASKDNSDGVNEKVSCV
UniProt P28335, 33-458 limits assumed: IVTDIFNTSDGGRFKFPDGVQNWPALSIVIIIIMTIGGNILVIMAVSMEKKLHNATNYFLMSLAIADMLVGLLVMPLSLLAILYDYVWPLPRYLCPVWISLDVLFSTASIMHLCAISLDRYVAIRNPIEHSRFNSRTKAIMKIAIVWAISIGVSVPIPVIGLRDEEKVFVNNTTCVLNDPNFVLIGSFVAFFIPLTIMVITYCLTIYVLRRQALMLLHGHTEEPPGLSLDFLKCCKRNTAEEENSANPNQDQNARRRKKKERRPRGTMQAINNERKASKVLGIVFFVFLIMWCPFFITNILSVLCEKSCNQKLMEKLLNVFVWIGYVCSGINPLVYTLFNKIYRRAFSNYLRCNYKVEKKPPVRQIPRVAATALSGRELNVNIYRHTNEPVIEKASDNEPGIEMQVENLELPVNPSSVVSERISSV
UniProt P14416, whole entry: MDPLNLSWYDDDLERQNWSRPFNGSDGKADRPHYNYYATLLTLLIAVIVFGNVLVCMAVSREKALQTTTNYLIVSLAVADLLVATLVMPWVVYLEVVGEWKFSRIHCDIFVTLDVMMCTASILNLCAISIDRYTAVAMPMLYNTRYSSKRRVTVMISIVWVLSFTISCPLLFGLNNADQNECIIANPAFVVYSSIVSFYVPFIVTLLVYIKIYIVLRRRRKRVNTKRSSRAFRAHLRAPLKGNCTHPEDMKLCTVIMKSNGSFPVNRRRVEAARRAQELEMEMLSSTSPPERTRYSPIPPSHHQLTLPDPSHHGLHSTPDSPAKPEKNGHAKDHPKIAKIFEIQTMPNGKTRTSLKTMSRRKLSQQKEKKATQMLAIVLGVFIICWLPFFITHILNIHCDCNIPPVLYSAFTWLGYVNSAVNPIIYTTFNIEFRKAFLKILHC
UniProt Q63380, 1-617: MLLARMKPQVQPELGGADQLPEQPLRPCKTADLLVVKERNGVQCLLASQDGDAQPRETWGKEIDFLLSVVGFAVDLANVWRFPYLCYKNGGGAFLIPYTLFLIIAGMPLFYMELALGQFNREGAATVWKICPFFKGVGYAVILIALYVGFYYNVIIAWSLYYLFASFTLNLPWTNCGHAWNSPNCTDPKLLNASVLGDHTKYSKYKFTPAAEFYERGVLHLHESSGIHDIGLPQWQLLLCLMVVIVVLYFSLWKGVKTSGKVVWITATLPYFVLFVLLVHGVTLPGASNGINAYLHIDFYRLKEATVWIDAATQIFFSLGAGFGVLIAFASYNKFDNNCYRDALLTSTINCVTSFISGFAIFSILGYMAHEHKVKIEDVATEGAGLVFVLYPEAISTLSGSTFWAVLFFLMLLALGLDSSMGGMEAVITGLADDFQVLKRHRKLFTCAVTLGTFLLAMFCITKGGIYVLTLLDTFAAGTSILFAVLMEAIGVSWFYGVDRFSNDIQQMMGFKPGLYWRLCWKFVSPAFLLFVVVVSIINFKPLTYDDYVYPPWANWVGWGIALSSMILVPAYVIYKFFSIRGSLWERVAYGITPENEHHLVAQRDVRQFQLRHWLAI

[2] = target: human cloned 5-HT2C receptor (Homo sapiens, UniProt P28335); test: In vitro binding affinity for 5-HT2C receptor (radioligand binding); conditions: human cloned 5-HT2C receptor expressed in CHO cells, [3H]mesulergine radioligand
Protocol: as §1

[3] = target: human dopamine D2L receptor (Homo sapiens, UniProt P14416); test: In vitro assay for D2 receptor binding; conditions: for D2 (pIC50): membranes of human D2L-transfected CHO cells, [3H]Spiperone radioligand; for D2/NET: ratio of D2 pIC50 to NET-inhibition pIC50
Protocol: Frozen membranes of human dopamine D2L receptor-transfected CHO cells were thawed, briefly homogenised using an Ultra-Turrax T25 homogeniser and diluted in Tris-HCl assay buffer containing NaCl, CaCl2, MgCl2, KCl (50, 120, 2, 1, and 5 mM respectively, adjusted to pH 7.7 with HCl) to an appropriate protein concentration optimised for specific and non-specific binding. Radioligand [^3H]Spiperone (NEN, specific activity ˜70 Ci/mmol) was diluted in assay buffer at a concentration of 2 nmol/L. Prepared radioligand (50 μl), along with 50 μl of either the 10% DMSO control, Butaclamol (10^−6 mol/l final concentration), or compound of interest, was then incubated (30 min, 37° C.) with 400 μl of the prepared membrane solution. Membrane-bound activity was filtered through a Packard Filtermate harvester onto GF/B Unifilterplates and washed with ice-cold Tris-HCl buffer (50 mM; pH 7.7; 6×0.5 ml). Filters were allowed to dry before adding scintillation fluid and counting in a Topcount scintillation counter. Percentage specific bound and competition binding curves were calculated using S-Plus software (Insightful).

[4] = target: norepinephrine transporter (NET) (Rattus norvegicus, UniProt Q63380); test: In vitro assay for NET inhibition (radioligand binding, rat brain cortex); conditions: rat brain cortex membranes, [3H]Nixosetine radioligand
[5] = Metabolic stability assay using human liver microsomes; conditions: 5.0 μM test compound, 15 min incubation, LC-MS
Protocol: Compounds according to the invention were tested for metabolic stability in the following assay using human liver microsomes in comparison with prior art compound A, referred to above.
Sub-cellular tissue preparations are made by centrifugal separation after mechanical homogenization of tissue. Tissue is rinsed in ice cold 0.1 M Tris-HCl (pH 7.4) buffer to wash excess blood. Tissue is then blotted dry, weighed and chopped coarsely using surgical scissors. The tissue pieces are homogenized in 3 volumes of ice cold 0.1 M phosphate buffer (pH 7.4) for 7×10 sec. The vessel is kept in/on ice during the homogenization process. Tissue homogenates are centrifuged at 9000×g for 20 minutes at 4° C. The resulting supernatant can be stored at −80° C. and is designated ‘S9’.
The S9-fraction may be centrifuged at 100.000×g for 60 minutes (4° C.). The resulting supernatant is aspirated, aliquoted and designated ‘cytosol’. The pellet is re-suspended in 0.1 M phosphate buffer (pH 7.4) in a final volume of 1 mL per 0.5 g original tissue weight and designated ‘microsomes’.
The incubation is carried out in the following system:
• The reaction is started by the addition of 0.8 mM NADP and incubated for 15 min. • Total assay volume is 250 microliters. • The reaction is stopped by the addition of 2 volumes of DMSO (or acetonitrile). • The samples are centrifuged (10 min, 900×g) and supernatant stored at room temperature (when stopped with DMSO; no longer than 24 h) or −20° C. (when stopped with acetonitrile; no longer than 24 h) before analysis. • The supernatant material is then analysed by LC-MS to determine the extent of metabolism of the test compound in the microsomes

| SMILES | 5-HT2A (pIC50) [1] | 5-HT2C (pIC50) [2] | D2 (pIC50) [3] | D2/NET [3] | NET-inhibition (pIC50) [4] | % metabolised [5] |
| --- | --- | --- | --- | --- | --- | --- |
| C[C@H]1c2ccccc2[C@H]2C[C@H](CN(C)C)O[C@@H]2c2ccccc21 | 7.9 | 8.5 | 6.9 | 0.94 | 7.3 | 13.5% |
| CNC[C@H]1C[C@@H]2c3ccccc3Cc3ccc(F)cc3[C@H]2O1 (relative stereo) | 8.9 | 9.2 | 7.5 | 0.96 | 7.8 | 21.85% |
| C[C@@H]1c2ccccc2[C@H]2C[C@H](CN(C)C)O[C@@H]2c2ccccc21 | 6.9 | 7.8 | 5.9 | 0.73 | 8.0 | 8% |
| NC[C@H]1C[C@@H]2c3ccccc3[C@H](O)c3ccc(F)cc3[C@H]2O1 | 8.0 | 8.4 | 5.2 | 0.92 | 5.6 |  |
| C[C@]1(O)c2ccccc2[C@H]2C[C@H](CN)O[C@@H]2c2cc(F)ccc21 |  | 8.1 | <5 | <0.77 | 6.4 |  |

Source: US20070197525A1, “Novel tetracyclic tetrahydrofuran derivatives” (priority 2004, published 2007)
